{"source": "patent EP4847524A2", "about": "“FATTY ACID CONJUGATED CYCLIC PEPTIDES” (dated 2026)", "key": {"[1]": {"tested_on": "adrenocorticotropin hormone (ACTH)", "test": "ACTH reduction in adrenalectomized rats, single dose screening", "settings": "for percentage ACTH reduction versus vehicle (normalized to t=0): single dose 350nmol/kg subcutaneous, mean (SEM)", "source_text": "Male, Sprague Dawley rats (226-250g/ 55-58 days old) underwent adrenalectomy surgery at Charles River Laboratories prior to shipment. Once delivered, postoperative care was provided by facility personnel. Rats (n=9-10 per group) were maintained single-housed with a 12:12 light/dark cycle. To compensate for the removal of adrenal mineralocorticoids and promote weight maintenance, they were supplemented with 0.9% NaCl and 1% sucrose in their drinking water. Additional pellets, medium high fat/sweet (Research Diets) were provided daily on the cage floor in addition to regular rat chow. Rats were allowed to recover and habituate for a week. Cage change occurred at least two days prior to the start of the experiment and again after one week if required for longer experiments. Water changes occurred every 3-4 days after experiments to avoid additional stress.\nAll experiments were conducted in the morning, to avoid circadian differences in adrenocorticotropic hormone (ACTH). Prior to collection of a whole blood sample via the tail vein, experimental animals were placed in a rat warmer 15-20 minutes prior to the designated time points. The animals were then placed in a rat restrainer and a 24-gauge catheter was placed in the tail vein. The blood (0.15-0.2mL/ sample) was collected into a 600µL Sarstedt tube that contained 1.2-2.0 mg EDTA-K3/mL. After baseline blood collection, rats were subcutaneously injected with freshly made test article solution. Blood was collected once a day for up to 1 week for screening experiments or up to 3 weeks for the dose response-repeat dose experiments. No more than 10% of blood volume for survival bleeds were taken during any two-week period. Screening experiment timepoints were: baseline-dose, 24 hours, 48 hours and 72 hours; while dose response-repeat dose experiment timepoints were: baseline-dose 1 hour, 24 hours, 48 hours-dose 2, 72 hours, 96 hours-dose 3, 120 hours, 144 hours, and 168 hours.\nThe whole blood was centrifuged for 3 minutes at 10,000rpm. Approximately 75-150µL of plasma was extracted, placed into an appropriately labeled micro test tube and frozen on dry ice. The plasma was stored at -80°C until time of analysis, performed with a Milliplex MAP kit for Rat Stress Hormone - ACTH (Cat. #RSHMAG-69K). Plates were run with technical duplicates for samples from screening experiments or technical triplicates for samples from the dose response-repeat dose experiments.\nThe mean value is given for each peptide/dose together with the standard error of mean (SEM). N represents the number of animals per peptide. For example, peptide 101, after dosing at 350nmol/kg, has a 68.4%) (±3.8) reduction in ACTH at 24 hours and a 62.2% (±5.1) reduction of ACTH at 48 hours."}, "[2]": {"test": "Peptide pharmacokinetics, rat study (IV and SC)", "description": "Pharmacokinetics of the test peptides were evaluated in vivo as described herein. Male Sprague Dawley rats (300-450 g), male Beagle dogs (5-10 kg) and male cynomolgus monkeys (2-4 kg) were used in the pharmacokinetics (PK) study. All animal procedures were approved by the Institutional Animal Care and Use Committee at the Test Facility.\nFor intravenous (IV) dosing, compounds were administered by intravenous bolus injection via the jugular vein cannula (JVC), at 0.1 mg/kg or 0.3 mg/kg in 0.01 M phosphate (pH 7.4, 1 mg/mL). For subcutaneous (SC) dosing, compounds were administered in the space over the dorsal region, at 3 mg/kg in 0.1M phosphate (pH 7.4, 0.6 mg/mL).\nSerial Blood samples were collected via the JVC at 0.083- (5 minutes), 0.25 (15 minutes), 1, 4, 8, 24, and 48-hours post-dose for IV and 2, 6, 24, 48, 120, 144, and 168-hours post-dose for SC administration.\nBlood samples were collected into tubes with K2EDTA. Tubes were stored on wet ice until processed to plasma by centrifugation (2,200 x g at nominal 4°C for 10 minutes) within 60 minutes of collection. Plasma samples were transferred into individual uniquely labeled matrix tubes and stored at nominal -80°C until analysis by liquid chromatography tandem-mass spectrometry (LC-MS/MS).\nThe plasma samples were prepared by solid phase extraction (SPE) using a Waters PRiME HLB Microelution plate. The SPE plate was conditioned using water:methanol (50:50, v/v) and 0.5% tween 80 in water. After pretreated samples were loaded, wells were washed with 5% methanol in water and 0.1% TFA in water:acetonitrile (80:20, v/v). Wells were eluted with 0.1% formic acid, 0.5% 2,2,2-trifluoroethanol in water:acetonitrile (20:80, v/v) followed by a dilution with 0.1% formic acid, 0.1% tween 80 in water for analysis by LC-MS/MS. The analyte and internal standard (IS) were separated by reversed-phase chromatography using a Shimadzu Nexera X2 UHPLC system and Phenomenex bioZen Peptide PS-C18 50x2.1-mm, 3µm column. The analyte and IS were detected using an Applied Biosystems Sciex API 6500 triple quadrupole mass spectrometer. The mass spectrometer was equipped with an electrospray ionization source operated in the positive-ion mode. The analyte and internal standard were monitored in the multiple-reaction-monitoring scan mode.\nNoncompartmental pharmacokinetic parameters were calculated using Phoenix® WinNonlin® software (Version 8.3; Linear Up Log Down Interpolation Calculation Method; Certara L.P.)."}}}
{"substance": "Ac-Asp-Leu-Thr-D-Phe-His-Leu-Leu-Arg-Glu-Val-Leu-Glu-Nle-K*-Arg-Glu-Glu-Gln-cVal-Ala-Gln-E#-Ala-Glu-K#-Asn-Arg-Lys-Leu-Nle-Glu-cVal-Ala-CONH2", "values": [{"measurement": "24hr % ACTH reduction Mean", "setting": "[1]; 24 hours after single subcutaneous dose 350 nmol/kg, versus vehicle (normalized to t=0), adrenalectomized rats", "result": -68.4, "unit": "%"}, {"measurement": "48hr % ACTH reduction Mean", "setting": "[1]; 48 hours after single subcutaneous dose 350 nmol/kg, versus vehicle (normalized to t=0), adrenalectomized rats", "result": -62.2, "unit": "%"}, {"measurement": "percentage ACTH reduction versus vehicle (normalized to t=0)", "setting": "[1]; 24 hours", "result": 68.4, "unit": "%"}, {"measurement": "percentage ACTH reduction versus vehicle (normalized to t=0)", "setting": "[1]; 48 hours", "result": 62.2, "unit": "%"}, {"measurement": "IV CL", "setting": "[2]; IV dose 0.1 mg/kg", "result": 2.7, "unit": "mL/h/kg"}, {"measurement": "IV Vd", "setting": "[2]; IV dose 0.1 mg/kg", "result": 0.078, "unit": "L/kg"}, {"measurement": "IV t1/2", "setting": "[2]; IV dose 0.1 mg/kg", "result": 21.5, "unit": "h"}, {"measurement": "SC AUC", "setting": "[2]; SC Dose 3 mg/kg", "result": 708, "unit": "µg·h/mL"}, {"measurement": "SC Cmax", "setting": "[2]; SC Dose 3 mg/kg", "result": 14700, "unit": "ng/mL"}, {"measurement": "SC Tmax", "setting": "[2]; SC Dose 3 mg/kg", "result": 24, "unit": "h"}, {"measurement": "SC t1/2", "setting": "[2]; SC Dose 3 mg/kg", "result": 20.0, "unit": "h"}, {"measurement": "SC F", "setting": "[2]; SC Dose 3 mg/kg, IV dose 0.1 mg/kg", "result": 79, "unit": "%"}]}
